# Data published in paper PMC9321663, “The DevTox Germ Layer Reporter Platform: An Assay Adaptation of the Human Pluripotent Stem Cell Test” (Toxics, 2022).
# Key:
# RUES2-GLR cells = assay: DevTox GLR-Endo assay: decrease in total cell count, cytotoxicity (AEID 3098, CellCount_dn); conditions: Table S2, 48 h exposure
# [1] = cited from earlier work
substance,measurement,setting,value
D-Camphor,Cell Count ACC,RUES2-GLR cells,>200 µM
same,Development Toxicant Classification,[1]; Table S2,Negative
same,Classification,"[1]; developmental toxicant classification (Teratogen / Non-Teratogen) of reference and training chemicals, ref DOI per chemical: 10.1093/toxsci/kft239, 10.1093/toxsci/kfaa014, 10.1177/026119290203000204, 10.1038/s41598-020-59542-x",Non-Teratogen
same,DT Class.,"[1]; developmental toxicant classification, chemicals common with quickPredict",Neg
